What was measured:
Conditions in all cases: 30 vs 60 min
[1] = tested on: Salmonella typhimurium TA1535; test: Preincubation Ames test, strain TA1535; assay type: cell-based
[2] = tested on: Salmonella typhimurium TA98; test: Preincubation Ames test, strain TA98; assay type: cell-based
[3] = tested on: Salmonella typhimurium TA100; test: Preincubation Ames test, strain TA100; assay type: cell-based
[4] = tested on: E. coli WP2 uvrA (pKM101); test: Preincubation Ames test, strain WP2 uvrA; assay type: cell-based, Escherichia coli

Measured: Effectiveness of time of preincubation for most effective S9

CCN(CC)N=O [SM-2, N,N-Diethylnitrous amide]
60min = 30min: all assays above
